Measured values: patent US20260083826A1, “NEW SYNTHETIC DRUGS FOR TREATING ALZHEIMER'S DISEASE” (OKINAWA INSTITUTE OF SCIENCE AND TECHNOLOGY SCHOOL …, priority 2022, published 2026)

Sequences of proteins named here, by UniProt entry; tags and fusion partners are left off.
UniProt P02550, whole entry: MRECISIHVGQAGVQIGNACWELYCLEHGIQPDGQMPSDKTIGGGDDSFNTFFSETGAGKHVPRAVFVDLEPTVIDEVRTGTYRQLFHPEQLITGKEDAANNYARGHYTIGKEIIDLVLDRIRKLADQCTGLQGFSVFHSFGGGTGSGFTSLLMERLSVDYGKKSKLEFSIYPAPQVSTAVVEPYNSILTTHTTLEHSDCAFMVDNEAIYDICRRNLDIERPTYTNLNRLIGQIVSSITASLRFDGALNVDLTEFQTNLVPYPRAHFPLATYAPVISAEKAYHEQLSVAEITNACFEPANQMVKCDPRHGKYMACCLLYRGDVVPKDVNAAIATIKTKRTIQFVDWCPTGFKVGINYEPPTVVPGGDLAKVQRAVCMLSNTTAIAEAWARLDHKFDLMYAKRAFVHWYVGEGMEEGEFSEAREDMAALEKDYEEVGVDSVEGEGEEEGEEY
UniProt P02554, whole entry: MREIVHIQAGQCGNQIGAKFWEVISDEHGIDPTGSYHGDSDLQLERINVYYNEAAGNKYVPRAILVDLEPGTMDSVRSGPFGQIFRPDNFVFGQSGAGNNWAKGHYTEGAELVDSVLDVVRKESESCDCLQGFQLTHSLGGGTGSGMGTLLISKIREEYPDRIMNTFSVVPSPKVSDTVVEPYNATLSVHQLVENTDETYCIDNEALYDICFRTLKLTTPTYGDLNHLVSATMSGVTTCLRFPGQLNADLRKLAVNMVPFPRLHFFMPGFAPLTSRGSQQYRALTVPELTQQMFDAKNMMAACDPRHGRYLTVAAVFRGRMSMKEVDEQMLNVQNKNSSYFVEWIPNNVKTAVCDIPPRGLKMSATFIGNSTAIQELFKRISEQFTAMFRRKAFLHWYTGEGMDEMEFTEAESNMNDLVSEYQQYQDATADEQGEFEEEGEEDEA

Target: T1, MTs (Sus scrofa, UniProt P02550+P02554)
T1 construct: made in house; host or cells: GST-PH: E. coli BL21 (DE3) pLysS, pGEX-6P vector
Experiment: Confocal and electron microscopic observation of microtubules and GST-PH protein
Format: binding
Settings: confocal imaging, confirmed by electron microscopy; GST alone as control
Experimental: The cDNA encoding PH domain (521-618 amino acids) of human dynamin 1 (NM_004408.4) (75) were prepared by PCR and subcloned into the plasmid pGEX-6P vector. The resulting plasmid was transformed into bacterial BL21 (DE3) pLysS strain for protein expression. The expression of GST-fusion proteins was induced by 0.1 mM isopropyl-1-thio-D-galactopyranoside (IPTG) at 37° C. for 3-6 h in LB media supplemented with 100 μg/ml ampicillin at Aww=0.8. GST-fusion proteins were then purified as described (76). The nucleotide sequences of the constructs using in this study were verified with DNA sequence analysis. All the purified protein solutions (1-3 mg/ml) were stored at −80° C. and thawed at 37° C. before use.
Microscopic observation of microtubule and GST-PH protein GST or GST-PH was labeled using HiLyte Fluor-555 labeling kit according to manufacture's manual (cat #LK14, Dojindo Co. LTD, Kumamoto, Japan). HiLyte Fluor-555 labeled GST or GST-PH was mixed with non-labelled each protein at the ratio of 1:1.2. Flutax 1-stabilized microtubules (4.1 μM) and fluorescent GST or GST-PH at 11 μM were mixed in GTB containing 2 μM Flutax 1 at 37° C. for 60 min. Eight μl of the mixture was spotted on the slide glass and mounted with Fluoromount (cat #K024, Di-agonistic BioSystems, CA, USA). […]

Co-localization with MTs: co-localized with MTs
B1: GST-PH: glutathione transferase-tagged PH domain (521-618 amino acids) of human dynamin 1 (protein)
chain: IRKGWLTINNIGIMKGGSKEYWFVLTAENLSWYKDDEEKEKKYMLSVDNLKLRDVEKGFMSSKHIFALFNTEQRNVYKDYRQLELACETQEEVDSWKA
modifications: left off: a dimerising Fc or GST
